# scFv variants of Ab-91 (heavy chain) against a SARS-CoV-2 spike peptide

All variants were tested on one target, the spike HR2 peptide PDVDLGDISGINAS (SARS-CoV-2).

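The starting antibody came from a phage panning campaign against this peptide. In library AAYL51, one, two or three CDR residues were substituted; doubles and triples were drawn at random. AlphaSeq pools MATa yeast showing the antibodies with MATalpha yeast showing the peptide. Pairs that bind mate more often; barcode pairs of the diploids are counted by sequencing. The ratio of observed to expected reads was calibrated, replicate by replicate, on BCL2-family standards whose Kd was known from biolayer interferometry. Mating was done three times.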

The variants keep the light chain, the linker and the frameworks of Ab-91 (scFv order VL, three GGGGS repeats, VH).
VL: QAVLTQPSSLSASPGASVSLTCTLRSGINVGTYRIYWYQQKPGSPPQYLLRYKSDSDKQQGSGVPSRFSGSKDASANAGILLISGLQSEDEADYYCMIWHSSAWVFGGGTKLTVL
VH: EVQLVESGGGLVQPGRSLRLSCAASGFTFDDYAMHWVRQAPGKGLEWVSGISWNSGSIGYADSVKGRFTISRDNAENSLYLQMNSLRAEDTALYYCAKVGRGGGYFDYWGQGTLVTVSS

Each variant is given by its three heavy chain CDRs, as the data file delimits them; those of the parent are GFTFDDYAMH, GISWNSGSIGYADSVK, VGRGGGYFDY.
Numbers give log10(Kd / nM), so 0 is 1 nM and 3 is 1 µM. Smaller is tighter.
Averages over replicates are reported, and they cover detected replicates only.
An entry "ND" has no value in the source: the pair was not observed among the diploids in that replicate. This suggests poor binding but is not conclusive.

CDR-H1	CDR-H2	CDR-H3	log10 Kd, replicates	mean log10 Kd (nM)	signal with controls
GFTFDDYAMH	GISWGSGSIGYEDSVK	DGRGGGYFDY	ND ND ND	ND	0/9
GFTFDDYAMH	GISWNRGSYGYADSVK	VGRGGGTFDY	ND ND ND	ND	0/9
GFTFDDYAMH	GISWNSGSIGYADSVK	VGRSGGYFDY	1.08 1.24 0.82	1.05	1/9 (3.76)
GFTFDDYAMH	GISWNSGSIGYADSVK	VGRRGGYFDM	ND ND ND	ND	0/9
GFVIDDYAMH	GISWNSGSIGYAESVK	VGRGGGYFDY	1.94 1.85 2.01	1.93	1/9 (4.00)
GFTMDDYAMH	GESWNSGSIGYADSVK	YGRGGGYFDY	ND ND ND	ND	4/9 (5.02)
GFTFDDYMMH	GISWCSGSIGYADSVK	VGRTGGYFDY	3.87 ND ND	3.87	1/9 (3.13)
GFTFDHYAMH	GISWNSGSHGYADSQK	VGRGGGYFDY	ND 3.17 ND	3.17	0/9
GFTFDDYAMH	GISWNSGNIGYADMVK	LGRGGGYFDY	ND ND ND	ND	2/9 (3.33)
GFTFDDYAMH	GISWNSCSIGYADSVT	VGRGGGYKDY	1.55 1.63 1.25	1.48	5/9 (5.48)
GFTFDDYAMH	GISCNSGSIGYHDSVK	VGRGGGYFDY	3.72 3.97 3.85	3.85	7/9 (4.53)
GFKFDPYAQH	GISWNSGSIGYADSVK	VGRGGGYFDY	3.85 ND ND	3.85	3/9 (4.66)
GFTFDVYAMA	GISWNSGSIGYADSVK	QGRGGGYFDY	ND ND ND	ND	0/9
VFTFDDYAMH	GISDNSGSIGYADSVK	VGRGGAYFDY	ND ND ND	ND	1/9 (4.10)
GHTFDDYAMH	GISWNSGSIGVADSRK	VGRGGGYFDY	3.97 ND ND	3.97	2/9 (3.81)
GFVFDDYAMH	GIVWNSGSIGYADSVK	VGRGGGYFDY	ND ND ND	ND	1/9 (2.10)
GFTFLDYAMH	SISWNSGSIGYADSVK	VGRGGGYFDY	ND ND ND	ND	1/9 (2.94)
GFTFWDYAMH	WISWNSGSIGYHDSVK	VGRGGGYFDY	ND ND ND	ND	0/9
GNTFDDYAMH	GISWNSGSIGYADSVK	VGEGGGYFDC	2.99 ND ND	2.99	1/9 (2.85)
GFCFDDYAMH	GISWNSGSIGYAPSVK	VGRQGGYFDY	ND 4.34 ND	4.34	0/9
GFTFDDNAMH	GISWNSGSIGYADSVK	VGRGGGEFDY	4.44 ND ND	4.44	2/9 (4.60)
GFTFDDYAMH	GWVWDSGSIGYADSVK	VGRGGGYFDY	ND ND ND	ND	0/9
GFTFDDYAMH	GKSWNSGSIGYADSVK	VGRGDGYFDT	ND ND ND	ND	1/9 (2.80)
GFTFDDYAMH	GISVLSGSAGYADSVK	VGRGGGYFDY	ND 3.83 2.68	3.25	3/9 (4.22)
GFQFDDYAMH	GISWNSGSIGYADSVK	VGRGGGWFDY	5.11 3.85 4.28	4.41	2/9 (4.92)
GFRFDDYAMH	GISWNSTSIGYADSVK	VGRGLGYFDY	3.11 3.61 3.67	3.47	3/9 (4.65)
GFTFDDTALH	GISWNSGSIGYADSVK	YGRGGGYFDY	6.51 ND ND	6.51	3/9 (4.89)
GFTFMDWAMH	GISWNSGSIGYADSVK	EGRGGGYFDY	2.97 4.52 ND	3.75	0/9
GFTNDDYAMH	GISWNSGSKGYADSVK	VGRGGGYFDD	3.84 ND ND	3.84	1/9 (2.21)
GFTFDDTAMH	GISWNSGSWGYADSVK	VGRGGGYGDY	ND ND ND	ND	0/9
GFTFWDYAWD	GISWNSGSIGYADSVK	VGRGGGYFDY	ND 5.32 ND	5.32	2/9 (4.31)
GFTFDDYAMH	GISWNSGSIGYADEVK	VGRGGGIFDE	ND 2.92 ND	2.92	0/9
GFTFDDYAMH	GISWNSGFITYADSVK	VGRGGRYFDY	3.40 ND 3.91	3.66	1/9 (3.04)
GFTFDDYAMH	GISWNEGSIGYADSVK	VWRGEGYFDY	5.78 4.35 ND	5.06	5/9 (5.35)
GFTFDDYAMH	GISWNSGVIGYADSVK	VGNGGGYFDY	ND ND ND	ND	0/9

The 5 strongest on average among those seen in every replicate, once more:

CDR-H1	CDR-H2	CDR-H3	log10 Kd, replicates	mean log10 Kd (nM)	signal with controls
GFTFDDYAMH	GISWNSGSIGYADSVK	VGRSGGYFDY	1.08 1.24 0.82	1.05	1/9 (3.76)
GFTFDDYAMH	GISWNSCSIGYADSVT	VGRGGGYKDY	1.55 1.63 1.25	1.48	5/9 (5.48)
GFVIDDYAMH	GISWNSGSIGYAESVK	VGRGGGYFDY	1.94 1.85 2.01	1.93	1/9 (4.00)
GFRFDDYAMH	GISWNSTSIGYADSVK	VGRGLGYFDY	3.11 3.61 3.67	3.47	3/9 (4.65)
GFTFDDYAMH	GISCNSGSIGYHDSVK	VGRGGGYFDY	3.72 3.97 3.85	3.85	7/9 (4.53)

In this assay the parent's reference entry averaged 1.86; its copy inside this library read 0.88.
Background: pairings of library AAYL51 with three empty control strains gave a value in 21% of cases (median 4.54, 5th percentile 3.26). Values in that range, when seen in few replicates, are hard to tell from nonspecific mating. Also given: how often the same scFv was detected with the empty control strains, with their mean in brackets.

Reference: Engelhart et al. 2022, doi:10.1038/s41597-022-01779-4. File: FLAb, binding data.